{"source": "patent US6022951A", "about": "“Streptavidin mutants” (priority 1996, dated 2000)", "origin": "cited, not measured here", "settings": "pH 7 at 25° C.; cited from earlier work"}
{"substance": "streptavidin", "values": [{"measurement": "dissociation rate constant for streptavidin-biotin complexes", "value": "2.8e-06", "unit": "s⁻¹"}]}
